Measured values taken from patent US10023539B2, “Aryl-cyanoguanidine compounds” (Bayer Pharma Aktiengesellschaft, priority 2014, dated 2018).

Chains of the proteins cited; added tags and fusions are not shown. Lines headed by an entry give the natural chain unless they say otherwise; changes in a name come on top.
UniProt Q9NRG4: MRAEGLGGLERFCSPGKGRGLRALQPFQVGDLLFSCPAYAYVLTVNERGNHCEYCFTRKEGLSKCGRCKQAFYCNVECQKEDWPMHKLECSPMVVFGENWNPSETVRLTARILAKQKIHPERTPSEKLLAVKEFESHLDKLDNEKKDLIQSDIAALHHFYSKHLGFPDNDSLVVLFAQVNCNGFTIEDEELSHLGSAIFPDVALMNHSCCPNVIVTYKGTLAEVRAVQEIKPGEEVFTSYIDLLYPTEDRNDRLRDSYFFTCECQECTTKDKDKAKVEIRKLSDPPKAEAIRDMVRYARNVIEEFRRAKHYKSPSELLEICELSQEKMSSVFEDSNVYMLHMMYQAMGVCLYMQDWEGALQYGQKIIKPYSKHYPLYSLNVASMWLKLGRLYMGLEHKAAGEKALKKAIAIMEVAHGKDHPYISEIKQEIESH

Legend:
SMYD2 [1] = biological target: T1, SMYD2 (Homo sapiens (Human), UniProt Q9NRG4); experiment: Scintillation Proximity Assay (SPA) for detection of SMYD2 enzymatic inhibition; assay type: biochemical; conditions: methylation of biotinylated p53 Peptide, 3H-SAM, full length SMYD2; read-out: IC50 [mol/l] (SPA Assay)
Method: 1.1 Scintillation Proximity Assay (SPA) for Detection of SMYD2 Enzymatic Inhibition
The SMYD2 full length enzyme was produced in-house by expression (with an N-terminal 6×His tag) in E. coli and purification by affinity chromatography on a Ni-NTA Sepharose column followed by a size exclusion chromatography step on a Superdex 200 16/60 column (GE Healthcare).
To this end, 100-fold concentrated compound solutions (in DMSO) were previously prepared by serial dilution (1:3.4) of 2 mM stocks in a clear low volume 384-well source microtiter plate (Greiner Bio-One), from which 50 nl of compound solutions were transferred into a white low volume test microtiter plate from the same supplier. […] The samples were then incubated for 15 min at 22° C. to allow pre-equilibration of the putative enzyme-inhibitor complexes before the start of the methylation reaction, which was initiated by the addition of 2.5 μl 2-fold concentrated solution (in assay buffer) of titrated S-Adenosyl-L-Methionine (3H-SAM, Perkin Elmer, final concentration: 60 nM) and p53 Peptide substrate (final concentration: 1.0 μM). The resulting mixture (5 μl final volume) was shortly centrifuged (2 min., 1500 rpm) and incubated at 22° C. during 30 min. Thereupon the reaction was stopped by adding 3 μl of Streptavidin PS SPA imaging beads (Perkin Elmer, final concentration of 3.12 μg/μl) and “cold” SAM (AK Scientific, 25 μM final concentration) for non-specific binding reduction. Plates containing the stopped reaction were sealed with transparent adhesive foil (Perkin Elmer), centrifuged (2 min., 1500 rpm), and further incubated for—at least—1 h at RT (or overnight at 4° C.) in order to allow the SPA signals to develop. […] IC50 values were calculated by fitting the normalized inhibition data to a 4-parameter logistic equation using the “Screener” analysis software from Genedata.

SMYD2 [2] = biological target: T1, SMYD2; experiment: In Cell Western (ICW) cell-based assay for detection of SMYD2 methylation activity; conditions: SMYD2 overexpressing KYSE-150 cells, 72 h treatment, p53K370me1 signal; read-out: IC50 [mol/l] (ICW assay)

| Structure (SMILES) | pIC50 (SMYD2 [1]) | pIC50 (SMYD2 [2]) |
| --- | --- | --- |
| CCN(C(=O)CO)C1CN(/C(=N\C#N)Nc2cccc(OC)c2)N=C1c1ccc(Cl)c(Cl)c1 (single isomer, unassigned) [Example 15.2, N-{1-[N′-cyano-N-(3-methoxyphenyl)carbamimidoyl}-3-(3,4-dichlorophenyl)-4,5-dihydro-1H-pyrazol-4-yl]-N-ethyl-2-hydroxyacetamide] | 7.15 | 7.00 |
| CCN(C(=O)CO)C1CN(/C(=N\C#N)Nc2cccc(OCCN(C)C)c2)N=C1c1ccc(Cl)c(Cl)c1 (single isomer, unassigned) [Example 16.2, N-[1-(N′-cyano-N-{3-[2-(dimethylamino)ethoxy]phenyl}carbamimidoyl)-3-(3,4-dichlorophenyl)-4,5-dihydro-1H-pyrazol-4-yl]-N-ethyl-2-hydroxyacetamide] | 6.80 | 5.59 |
| CCN(C(=O)CO)C1CN(/C(=N\C#N)Nc2cc(OC(F)F)ccc2OC)N=C1c1ccc(Cl)c(Cl)c1 (single isomer, unassigned) [Example 18.2, N-[1-{N′-cyano-N-[5-(difluoromethoxy)-2-methoxyphenyl]carbamimidoyl}-3-(3,4-dichlorophenyl)-4,5-dihydro-1H-pyrazol-4-yl]-N-ethyl-2-hydroxyacetamide] | 7.52 | 7.54 |
| CCN(C(=O)CO)C1CN(/C(=N\C#N)Nc2cccc(OC(F)F)c2)N=C1c1ccc(Cl)c(C)c1 (single isomer, unassigned) [Example 33.2, N-[3-(4-chloro-3-methylphenyl)-1-{N′-cyano-N-[3-(difluoromethoxy)phenyl]carbamimidoyl}-4,5-dihydro-1H-pyrazol-4-yl]-N-ethyl-2-hydroxyacetamide] | 7.42 | 7.02 |

pIC50: −log10 of the molar value.
